From patent US11370779B2, “Pharmaceutical composition for preventing or treating acute myeloid leukemia or metastatic breast cancer” (PELEMED CO., LTD., priority 2017, dated 2022)

System: MV4;11 cells
Experiment: Cell viability, EZ-Cytox tetrazolium assay, MV4;11
Type: cell-based
Settings: Homo sapiens, MV4-11, 72 h, read-out: Ic50 (nM) MV4;11
Method: MDA-MB-231 (metastatic breast cancer, ATCC HTB-26), Jurkat (human acute T lymphocytic leukemia, ATCC TIB-152), and K-562 (human chronic myelogenous leukemia, ATCC CCL-243) cells were cultured in RPMI-1640 (Sigma Co.). MCF7 (human breast adenocarcinoma, ATCC HTB-22) and PC-3 (human prostate adenocarcinoma, ATCC CRL-1435) cells were cultured in DMEM (Sigma Co.) medium supplemented with 10% fetal bovine serum and 1% penicillin/streptomycin. The cultured cells were incubated at 3° C. with 5% CO2.
Cell viability was assessed by a tetrazolium-based assay using the EZ-Cytox Cell Viability Assay kit (DaeilLab, Korea). Briefly, 2,000 to 15,000 cells were plated in 96-well plates in 100 μl of medium. The next day, the cells were treated with compounds together with dimethyl sulfoxide (DMSO) as a negative control. Three days (72 hours) after the drug addition, 15 μl of the EZ-Cytox kit reagent was added to each well of the 96-well plate and then incubated at 37° C. in a humidified CO2 incubator for 4 hours. After incubation, the optical density (OD) was measured at a wavelength of 450 nm using a Victor multilabel reader (Perkin Elmer, Waltham, Mass., USA). The IC50 was calculated by nonlinear regression using Prism version 5.01 (GraphPad, La Jolla, Calif., USA).

In the case of `COC(=O)c1ccc2c(c1)/C(=C1/Nc3ccccc3/C1=N\O)C(=O)N2` [Compound 1, Methyl (2Z,3E)-3-(hydroxyimino)-2′-oxo-[2,3′-biindolinylidene]-5′-carboxylate], the IC50 is reported as 41 nM.
